Assays:
BTK in RAMOS cells = BTK in RAMOS cells (Homo sapiens, UniProt Q06187); experiment: PROTAC-mediated BTK degradation, anti-BTK Western blot; settings: 24 h, 37 °C
RAMOS cells = experiment: Proteome-wide selectivity of PROTAC 14 (label-free quantitative proteomics); settings: 0.625 μM, 24 h, 37 °C, p <0.01

The chains behind the UniProt entries cited, without tags or fusion partners.
UniProt Q06187, whole entry: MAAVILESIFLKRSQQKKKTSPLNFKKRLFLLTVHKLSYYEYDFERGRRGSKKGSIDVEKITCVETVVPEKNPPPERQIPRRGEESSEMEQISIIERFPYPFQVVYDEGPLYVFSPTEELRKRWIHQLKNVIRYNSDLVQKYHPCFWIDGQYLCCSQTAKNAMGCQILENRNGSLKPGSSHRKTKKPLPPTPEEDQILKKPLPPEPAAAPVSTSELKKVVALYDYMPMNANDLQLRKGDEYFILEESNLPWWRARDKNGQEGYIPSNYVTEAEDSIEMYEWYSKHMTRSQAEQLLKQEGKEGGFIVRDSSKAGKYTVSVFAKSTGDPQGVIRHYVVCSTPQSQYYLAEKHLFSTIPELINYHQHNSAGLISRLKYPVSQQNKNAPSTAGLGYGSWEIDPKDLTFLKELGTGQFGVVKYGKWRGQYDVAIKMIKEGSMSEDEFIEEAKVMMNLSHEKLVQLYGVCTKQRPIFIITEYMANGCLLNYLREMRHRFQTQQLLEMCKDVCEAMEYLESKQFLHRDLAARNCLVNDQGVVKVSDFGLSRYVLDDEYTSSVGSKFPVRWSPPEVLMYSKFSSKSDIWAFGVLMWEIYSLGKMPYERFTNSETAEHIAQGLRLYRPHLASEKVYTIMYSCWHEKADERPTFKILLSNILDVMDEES

## C=CP(=O)(Nc1ccccc1Cn1nc(-c2ccc(Oc3ccccc3)cc2)c2c(N)ncnc21)OCCc1cn(CCOCCOCCOCCNc2cccc3c2C(=O)N(C2CCC(=O)NC2=O)C3=O)nn1 (stereo not shown)
BTK in RAMOS cells
  DC50: 440 nM
  DCMAX: around 77%
BTK in RAMOS cells; second-order polynomial fit
  DMAX: 2 µM
RAMOS cells
  proteins depleted (proteome-wide selectivity): only BTK and the known Ibrutinib off-target BLK were depleted by more than 50%
